Measurements published in patent US10640802B2 (priority 2012, dated 2020).

Amino acid sequences for entries named in this document (tags omitted). Residues count along the entry.
UniProt B7J952, 1-118: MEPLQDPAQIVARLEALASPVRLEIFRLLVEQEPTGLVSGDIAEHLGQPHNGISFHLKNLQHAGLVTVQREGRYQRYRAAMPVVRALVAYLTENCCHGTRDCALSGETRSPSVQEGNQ
UniProt B7J952, 1-118 C102S: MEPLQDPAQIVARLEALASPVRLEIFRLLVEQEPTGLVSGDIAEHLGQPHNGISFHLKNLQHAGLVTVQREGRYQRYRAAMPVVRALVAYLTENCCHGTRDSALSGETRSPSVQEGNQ

Assays:
wild type AfArsR = experiment: Fluorescence anisotropy: dissociation of wild type AfArsR from DNA by arsenicals; assay type: binding, Acidithiobacillus ferrooxidans
[1] = tested on: AfarsR-gfp biosensor (E. coli strain AW3110 bearing pBADarsR and pACYC184-parsO-gfp); experiment: In vivo biosensor assay, gfp expression, wild type AfarsR; assay type: cell-based; details: for biosensor response (gfp derepression): 0.05% arabinose, wild type repressor; for induction of gfp expression: subtoxic concentrations
[2] = tested on: C102S mutant biosensor (E. coli strain AW3110); experiment: In vivo biosensor assay, gfp expression, C102S AfarsR; assay type: cell-based; details: for biosensor response (gfp derepression): 0.05% arabinose, C102S mutant repressor; for EC50: read-out: apparent half maximal concentration for induction, mutant biosensor, FIG. 13C
[3] = tested on: Acidithiobacillus ferrooxidans AfArsR variant C102S (Cys102 eliminated by mutation; pBADarsR / parsO-gfp biosensor in E. coli AW3110)
[4] = tested on: E. coli AW3110 biosensor cells; experiment: Toxicity of arsenicals to biosensor cells; details: FIG. 15 (M9 medium, overnight) / FIG. 16C (disk test)
[5] = target: Acidithiobacillus ferrooxidans AfArsR repressor, wild type (Acidithiobacillus ferrooxidans, UniProt B7J952); details: read-out: half-maximal concentration decreasing anisotropy of AfArsR-DNA complex; fluorescein-labeled arsO DNA, pH7.5, anaerobic (FIGS. 11A, 11B)
[6] = tested on: Acidithiobacillus ferrooxidans AfArsR variant C102S (biosensor co-cultured with Burkholderia sp. MR1); experiment: Biosensor co-cultured with Burkholderia sp. MR1: gfp response to arsenicals; assay type: cell-based; details: M9 medium, 2 μM arsenical, 8 hours
[7] = tested on: Acidithiobacillus ferrooxidans AfArsR, wild type (pBADarsR / pACYC184-parsO-gfp biosensor in E. coli AW3110)
[8] = target: Acidithiobacillus ferrooxidans AfArsR variant C102S (Cys102 to serine) (Acidithiobacillus ferrooxidans, UniProt B7J952, C102S)
AfArsR C102S mutant = experiment: Fluorescence anisotropy: dissociation of C102S AfArsR from DNA by arsenicals; assay type: binding, Acidithiobacillus ferrooxidans; details: for response of C102S AfArsR (concentration range): slightly higher than the wild type
[9] = tested on: arsenic hypersensitive E. coli strain AW3110
[10] = tested on: C102S biosensor co-cultured with Burkholderia sp. MR1; experiment: Biosensor co-cultured with Burkholderia sp. MR1 (in situ reduction); assay type: cell-based, E. coli / Burkholderia sp. MR1; details: 2 μM, M9 medium, 8 hours, 0.05% arabinose

Compound	biosensor response (gfp derepression) [1]	induction of gfp expression ([1]; 0.2% arabinose)	biosensor response (gfp derepression) [2]	induction / derepression of gfp expression [3]	EC50 [5]	response of C102S AfArsR (concentration range) (AfArsR C102S mutant)	EC50 [2]	also measured
C[As](=O)(O)O	unresponsive	not inducers	unresponsive	nor detect	–	–	–	effect on anisotropy of the AfArsR-DNA complex (wild type AfArsR; wild type AfArsR): no effect
O=[As]c1ccccc1 (stereo not shown)	–	–	–	–	300 nM	–	–	toxicity to biosensor cells [4]: toxic
O=[N+]([O-])c1cc([As](O)O)ccc1O	–	–	–	proportional to the concentration of the inducer	300 nM	–	–	response of co-cultured biosensor [6]: did respond; EC50 ([3]; read-out: apparent half maximal concentration for induction, FIG. 13C): 250 nM; induction / derepression of gfp expression [7]: proportional to the concentration of the inducer; response (anisotropy), concentration range ([8]; FIG. 11C): sub-micromolar range; response to MAs(III), Rox(III) and PhAs(III) relative to wild type ([8]; FIG. 11C compared with FIG. 11A): slightly higher than the wild type
methylarsenite	proportional to the concentration of the inducer	induced gfp expression	proportional to the concentration of the inducer	–	–	sub-micromolar range	3000 nM	binding by purified AfArsR C102S mutant (AfArsR C102S mutant; compared with wild type AfArsR, FIGS. 11C and 11D): same binding affinity; range of nearly linear response ([1]; 0.5% arabinose): 2 to 8 µM; EC50 ([1]; read-out: apparent half maximal concentration required for induction, 0.2% arabinose, FIG. 6B): 3000 nM; fluorescence of Cys102-lacking biosensor ([2]; FIG. 10): high levels of fluorescence; concentration in excess of which toxic ([9]; strain AW3110): 10^−5 M
trivalent roxarsone	proportional to the concentration of the inducer	–	proportional to the concentration of the inducer	–	–	sub-micromolar range	250 nM	EC50 (wild type AfArsR; read-out: half-maximal concentration for decrease of anisotropy, wild type AfArsR-DNA complex, FIG. 11A/B): 300 nM; toxicity, disk test ([9]; LB plate, overnight, FIG. 16C): toxic; response of biosensor co-cultured with Burkholderia [10]: did respond
